Two molecules from patent US7772408B1, “Substituted 5-alkoxypsoralens as inhibitors of potassium channel activity in lymphocytes and other cells” (The Regents of the University of California, priority 2002, dated 2010) can be followed below.

Sequences of proteins named here, by UniProt entry; tags and fusion partners are left off.
UniProt B1AWN6, whole entry: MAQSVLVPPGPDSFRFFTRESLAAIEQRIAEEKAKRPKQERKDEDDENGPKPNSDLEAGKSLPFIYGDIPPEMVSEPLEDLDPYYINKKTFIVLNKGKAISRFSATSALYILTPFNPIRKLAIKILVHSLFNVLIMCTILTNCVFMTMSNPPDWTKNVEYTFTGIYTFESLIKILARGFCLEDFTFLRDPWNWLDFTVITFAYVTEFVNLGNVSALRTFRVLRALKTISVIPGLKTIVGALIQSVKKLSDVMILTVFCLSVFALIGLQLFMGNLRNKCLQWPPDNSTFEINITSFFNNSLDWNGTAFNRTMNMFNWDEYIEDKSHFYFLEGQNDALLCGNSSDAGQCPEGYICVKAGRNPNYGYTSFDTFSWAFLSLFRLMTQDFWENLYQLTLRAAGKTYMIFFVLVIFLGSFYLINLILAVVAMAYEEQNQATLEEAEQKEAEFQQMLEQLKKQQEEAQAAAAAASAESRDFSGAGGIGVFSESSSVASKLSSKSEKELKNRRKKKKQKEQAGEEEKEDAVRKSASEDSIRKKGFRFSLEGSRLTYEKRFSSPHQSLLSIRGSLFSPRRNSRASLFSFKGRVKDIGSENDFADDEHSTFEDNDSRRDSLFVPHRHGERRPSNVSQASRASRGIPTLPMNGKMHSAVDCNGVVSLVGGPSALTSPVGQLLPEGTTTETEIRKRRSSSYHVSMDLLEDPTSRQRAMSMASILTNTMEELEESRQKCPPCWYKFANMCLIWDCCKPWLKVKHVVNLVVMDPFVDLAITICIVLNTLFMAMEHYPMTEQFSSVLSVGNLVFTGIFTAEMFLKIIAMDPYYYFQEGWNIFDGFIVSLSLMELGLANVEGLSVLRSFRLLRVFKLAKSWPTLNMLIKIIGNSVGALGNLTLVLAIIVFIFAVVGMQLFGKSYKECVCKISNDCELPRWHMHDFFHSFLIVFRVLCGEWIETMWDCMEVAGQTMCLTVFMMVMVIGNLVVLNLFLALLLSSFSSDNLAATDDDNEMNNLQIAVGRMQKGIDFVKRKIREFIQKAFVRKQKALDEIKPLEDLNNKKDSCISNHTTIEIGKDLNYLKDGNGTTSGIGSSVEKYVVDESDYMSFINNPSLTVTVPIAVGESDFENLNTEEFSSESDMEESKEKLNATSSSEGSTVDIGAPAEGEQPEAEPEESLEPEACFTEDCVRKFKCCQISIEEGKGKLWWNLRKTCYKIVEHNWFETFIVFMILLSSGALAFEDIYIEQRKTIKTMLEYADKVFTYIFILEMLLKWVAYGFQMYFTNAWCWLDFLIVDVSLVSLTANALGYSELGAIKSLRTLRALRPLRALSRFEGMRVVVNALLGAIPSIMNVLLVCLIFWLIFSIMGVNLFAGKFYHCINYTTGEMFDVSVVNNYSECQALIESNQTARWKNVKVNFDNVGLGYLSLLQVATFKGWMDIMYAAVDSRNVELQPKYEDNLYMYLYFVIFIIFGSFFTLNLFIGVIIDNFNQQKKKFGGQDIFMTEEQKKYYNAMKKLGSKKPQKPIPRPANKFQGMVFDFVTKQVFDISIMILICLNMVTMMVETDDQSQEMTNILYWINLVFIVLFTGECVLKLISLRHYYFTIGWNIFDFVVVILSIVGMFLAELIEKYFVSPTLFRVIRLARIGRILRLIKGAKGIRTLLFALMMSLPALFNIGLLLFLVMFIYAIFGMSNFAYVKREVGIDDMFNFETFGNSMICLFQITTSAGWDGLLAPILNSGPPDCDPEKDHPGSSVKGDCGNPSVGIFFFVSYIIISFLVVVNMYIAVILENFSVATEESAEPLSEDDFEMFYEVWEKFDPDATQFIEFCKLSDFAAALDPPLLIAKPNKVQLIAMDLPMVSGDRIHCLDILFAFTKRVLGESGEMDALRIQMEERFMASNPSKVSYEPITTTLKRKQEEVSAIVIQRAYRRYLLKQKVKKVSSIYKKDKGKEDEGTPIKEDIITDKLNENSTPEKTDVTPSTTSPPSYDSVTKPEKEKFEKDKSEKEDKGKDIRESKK

This assay has as its target T1, Nav1.2 (Mus musculus, UniProt B1AWN6).
T1 construct: endogenous in cells
Briefly: Whole-cell patch-clamp, sodium channel Nav1.2 (N1E-115). The format is cell-based. (Patch clamp records ionic current or voltage across a cell membrane.)

As to `COc1c2ccoc2cc2oc(=O)ccc12` [5-MOP, 5-Methoxypsoralen], the “S (selectivity over Nav1.2), S = Kd Nav1.2/Kd Kv1.3” value is recorded as 14.

`O=c1ccc2c(OCCCCc3ccccc3)c3ccoc3cc2o1` [J 19 (Psora 4), 4-(4-Phenylbutoxy)-7H-furo[3,2-g][1]benzopyran-7-one] returned a Kd (whole-cell patch-clamp, n = 3) of more than 1000 nM.

What is called Kd is the free concentration of one partner at which half of the binding sites on the other are occupied at equilibrium, for simple one-to-one binding.
